For one compound, Ki results are on record in US20220002314A1 (priority 2018, published 2022).

By UniProt entry, the sequences of proteins in these tests, tags left out. Where a name states a change or a piece, a line headed by the entry shows the natural chain unless it says otherwise. Residues count along the entry.
UniProt P54289, 25-1103 limits assumed: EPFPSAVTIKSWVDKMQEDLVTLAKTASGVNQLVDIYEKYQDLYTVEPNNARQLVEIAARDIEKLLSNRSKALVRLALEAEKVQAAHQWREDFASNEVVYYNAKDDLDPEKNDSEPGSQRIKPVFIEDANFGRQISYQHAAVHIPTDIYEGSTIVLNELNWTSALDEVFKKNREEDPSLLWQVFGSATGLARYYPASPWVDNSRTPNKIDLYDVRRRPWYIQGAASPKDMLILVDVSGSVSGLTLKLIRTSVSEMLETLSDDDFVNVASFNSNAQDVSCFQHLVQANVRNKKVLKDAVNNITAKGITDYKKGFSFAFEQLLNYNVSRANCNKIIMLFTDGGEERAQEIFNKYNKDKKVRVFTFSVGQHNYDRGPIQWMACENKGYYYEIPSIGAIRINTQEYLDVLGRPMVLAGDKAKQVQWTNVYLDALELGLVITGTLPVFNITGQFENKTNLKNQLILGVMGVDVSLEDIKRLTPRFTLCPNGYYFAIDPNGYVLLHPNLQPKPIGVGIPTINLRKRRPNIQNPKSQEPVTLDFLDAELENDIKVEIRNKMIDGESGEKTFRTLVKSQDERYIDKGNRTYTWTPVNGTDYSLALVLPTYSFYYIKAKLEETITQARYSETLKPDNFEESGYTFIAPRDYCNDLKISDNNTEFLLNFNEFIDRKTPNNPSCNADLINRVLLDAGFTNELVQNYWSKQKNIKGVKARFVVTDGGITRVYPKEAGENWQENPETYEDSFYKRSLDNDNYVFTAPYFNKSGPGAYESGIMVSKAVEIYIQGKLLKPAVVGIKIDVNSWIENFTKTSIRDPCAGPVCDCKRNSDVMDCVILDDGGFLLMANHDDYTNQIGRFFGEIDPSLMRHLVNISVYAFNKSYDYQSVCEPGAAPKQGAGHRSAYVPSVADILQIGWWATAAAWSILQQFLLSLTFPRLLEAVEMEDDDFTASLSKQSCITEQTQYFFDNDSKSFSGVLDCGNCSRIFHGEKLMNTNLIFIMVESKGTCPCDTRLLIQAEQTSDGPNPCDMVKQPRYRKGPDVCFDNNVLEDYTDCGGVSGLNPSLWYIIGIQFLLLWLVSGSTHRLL

The experiment deals with Human α2δ-1 subunit of Cav2.2 calcium channel (Homo sapiens, UniProt P54289). Particulars: read-out: α2δ-1 binding; binding to α2δ-1 subunit of voltage-gated calcium channels expressed as Ki; + also Ki>5000 nM or inhibition between 1% and 50%.

This is a selection: effects in other tests are not listed, and their absence says nothing.

As to `CCCC(c1nc2ccc(N(C(=O)CC)C3CCN(C)CC3)cc2c(=O)n1CC)N1C[C@@H](C)N[C@@H](C)C1` (stereo partly shown), the Ki is less than 500 nM.
